# Like-named read-outs stand apart in the source and are kept apart here.
# Chains of the proteins cited; added tags and fusions are not shown.
# UniProt P18901, whole entry: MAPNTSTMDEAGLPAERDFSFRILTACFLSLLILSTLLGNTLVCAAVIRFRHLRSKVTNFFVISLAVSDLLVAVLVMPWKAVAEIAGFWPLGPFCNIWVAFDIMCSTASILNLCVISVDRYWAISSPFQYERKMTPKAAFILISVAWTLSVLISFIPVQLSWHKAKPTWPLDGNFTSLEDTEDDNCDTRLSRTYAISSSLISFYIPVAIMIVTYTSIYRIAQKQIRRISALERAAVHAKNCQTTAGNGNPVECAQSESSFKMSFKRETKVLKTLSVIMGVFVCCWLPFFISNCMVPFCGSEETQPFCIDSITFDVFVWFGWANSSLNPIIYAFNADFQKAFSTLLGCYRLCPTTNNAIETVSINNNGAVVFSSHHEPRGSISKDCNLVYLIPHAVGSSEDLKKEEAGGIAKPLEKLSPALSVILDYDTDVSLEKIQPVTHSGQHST
# UniProt P14842, whole entry: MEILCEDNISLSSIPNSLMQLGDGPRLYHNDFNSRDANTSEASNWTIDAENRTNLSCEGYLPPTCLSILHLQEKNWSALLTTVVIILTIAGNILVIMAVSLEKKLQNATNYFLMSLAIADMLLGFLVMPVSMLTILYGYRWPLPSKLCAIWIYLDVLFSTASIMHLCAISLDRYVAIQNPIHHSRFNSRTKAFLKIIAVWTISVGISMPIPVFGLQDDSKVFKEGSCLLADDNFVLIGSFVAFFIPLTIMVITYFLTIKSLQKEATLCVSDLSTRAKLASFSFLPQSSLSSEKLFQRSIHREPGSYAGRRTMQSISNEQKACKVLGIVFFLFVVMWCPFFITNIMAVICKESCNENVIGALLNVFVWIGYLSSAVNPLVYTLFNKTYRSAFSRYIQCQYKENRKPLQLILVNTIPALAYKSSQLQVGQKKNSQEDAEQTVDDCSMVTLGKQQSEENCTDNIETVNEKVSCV
# What was measured:
# DA-1 receptors = target: T1, DA-1 receptors (Rattus norvegicus, UniProt P18901); test: [3H]SCH 23390 binding to DA-1 receptors (rat striatum); details: for Ki: read-out: D1 affinity Ki
# T1 construct: striatum for DA-1 and DA-2 receptors; from tissue; host or cells: rat striatum membranes
# 5-HT2A receptors = 5-HT2A receptors (Rattus norvegicus, UniProt P14842); test: [3H]Ketanserin binding to 5-HT2A receptors (rat cortex); details: read-out: 5HT2A affinity Ki
smiles,measurement,setting,value
"CN1CCN(C2Cn3cccc3Sc3ccc(Cl)cc32)CC1 (racemic) [ST1455, (±)-7-chloro-9-(4-methylpiperazin-1-yl)-9,10-dihydropyrrolo[2,1-b][1,3]benzothiazepine]",Ki,DA-1 receptors,27 ± 10 nM
"CN1CCN(C2Cn3cccc3Sc3ccc(F)cc32)CC1 (racemic) [ST1456, (±)-7-fluoro-9-(4-methylpiperazin-1-yl)-9,10-dihydropyrrolo[2,1-b][1,3]benzothiazepine]",Ki,5-HT2A receptors,5.1 nM
"CN1CCN(C2Cn3cccc3Sc3ccc(Cl)cc32)CC1 (single isomer, unassigned) [ST1461]",D1 pKi,DA-1 receptors; rat striatum,7.66
same,Ki,"DA-1 receptors; rat striatum, [3H]SCH 23390, average ± standard error",22 ± 1.3 nM
"CN1CCN(C2Cn3cccc3Sc3ccc(Cl)cc32)CC1 (single isomer, unassigned; (+)) [ST1460, (+)-7-chloro-9-(4-methylpiperazin-1-yl)-9,10-dihydropyrrolo[2,1-b][1,3]benzothiazepine]",Ki,DA-1 receptors,16.4 ± 1 nM
